Where two headings read alike, the source gives them in different places.

[1] abbreviates: Example 3, person, one hour following administration.
Where [2] appears, read: Example 4, person, one hour following administration.
The mark [3] stands for this setting: Example 6, person, one hour after administration.

On to `Cc1cc2c(s1)Nc1ccccc1N=C2N1CCN(C)CC1` [olanzapine], for which, under setting [1], the “eye test: time patient keeps eyes open” value is “more than 10 seconds”; the “respiratory rate, oxygen saturation, and pulse” value was “not significantly altered”. Also, under setting [2], the “arousal by sternal rub” value is reported as “barely aroused”, the “eye test: time patient keeps eyes open” value was not above 3 s, the pulse result is “decrease in pulse” and the respiratory rate result is given as “Respiratory depression is observed”. Under setting [3], the “ability to keep eyes open” value is reported as “unable to keep their eyes open” and the “duration of sleep after administration” value turned out to be 1 h.
